The text below walks through data of patent US6451814B1, “Heterocyclic β-3 adrenergic receptor agonists” (Wyeth, priority 2000, dated 2002).

Protein sequences, listed by entry. Tags and fused reporters are not part of them. Lines headed by an entry give the natural chain unless they say otherwise; changes in a name come on top.
UniProt P13945: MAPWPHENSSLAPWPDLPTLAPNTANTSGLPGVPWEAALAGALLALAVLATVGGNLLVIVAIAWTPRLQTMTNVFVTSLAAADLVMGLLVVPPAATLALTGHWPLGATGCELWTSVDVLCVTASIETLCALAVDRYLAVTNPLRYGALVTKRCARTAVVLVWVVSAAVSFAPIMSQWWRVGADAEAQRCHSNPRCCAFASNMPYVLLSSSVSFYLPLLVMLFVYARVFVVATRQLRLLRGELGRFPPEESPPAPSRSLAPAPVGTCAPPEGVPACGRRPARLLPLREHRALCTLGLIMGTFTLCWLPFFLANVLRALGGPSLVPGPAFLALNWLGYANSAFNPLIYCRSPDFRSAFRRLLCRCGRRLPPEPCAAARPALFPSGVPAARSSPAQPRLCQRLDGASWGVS

Structures are written as SMILES.

The assay deals with T1, human β3-adrenergic receptor (Homo sapiens, UniProt P13945).
T1 construct: Full length β3 AR clones (402 amino acids) containing the last 6 amino acids of hβ3—AR are prepared; expressed in transfected cells; host or cells: CHO cells
As to the kind of experiment: cAMP response (SPA kit) in CHO cells transfected with human β3 adrenergic receptor. In kind it is cell-based.

For orientation: EC50 means the midpoint of the concentration-response curve. Read a low EC50 as an effect from little substance. Compound `O=C(NC1CCCCC1)N1CCC(Nc2ccc(CCNC[C@H](O)COc3ccc(O)cc3)cc2)CC1` [Example 2] returned an EC50 (CHO cells expressing human β3-AR, 10^-9 M to 10^-5 M, 30 min at 37° C., cAMP by SPA) of 80 nM. Further, the “IA(β3)” value (maximal response of compound compared to maximal response of isoproterenol at 10^-5 M, CHO cells, human β3-AR) is listed as 1.12.
